## Measured melting point values of organic chemicals

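OPERA's authors assembled the values from existing databases and did not measure them anew. One number stands for a compound and property, with no spread given. Conditions of the individual experiments are not part of the data. A value may pool stereoisomers or salt forms, and the file does not say which form was measured. Unmarked limits or estimates from the upstream databases cannot be ruled out.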

Melting points are in °C.

* N#Cc1ccc(CN2CCNCC2)cc1: melting point 215 °C
* NC(C(=O)O)c1ccc(Cl)cc1 (configuration not stated): melting point 220 °C
* C[C@H](N)Cc1ccccc1: melting point 26.25 °C
* O=c1c2ccccc2[nH]c(=S)n1-c1ccc(Cl)cc1: melting point 337 °C
* Cc1ccccc1NC(=O)CCl: melting point 76 °C
* CCC(=O)C(c1ccccc1)(c1ccccc1)C(C)CN(C)C.Cl (configuration not stated): melting point 232 °C
* O=C(NCNC(=O)NC1C(=O)NC(=O)N1CO)NC1C(=O)NC(=O)N1CO (configuration not stated): melting point 240.2 °C
* CC(Cl)C(=O)NCC(F)(F)F (configuration not stated): melting point 43 °C
* C#C[C@]1(OC(C)=O)CC[C@H]2[C@@H]3CCC4=CC(=O)CC[C@@H]4[C@H]3CC[C@@]21CC: melting point 204 °C
* O=S(=O)([N-]S(=O)(=O)C(F)(F)C(F)(F)F)C(F)(F)C(F)(F)F.[Li+]: melting point 328 °C
* CCOC(C(=O)O)(c1ccccc1)c1ccccc1: melting point 114 °C
* Brc1ccc(Oc2ccc(Br)c(Br)c2Br)c(Br)c1: melting point 121.5 °C
* Cc1nc(NC(=O)CCl)sc1C: melting point 145 °C
* Cc1ccc(C(O)CN)cc1 (configuration not stated): melting point 71 °C
* CN1CCN(c2ccc(C#N)cn2)CC1: melting point 68 °C
* NCC(O)c1ccc(F)c(F)c1 (configuration not stated): melting point 54 °C
* N#Cc1cccc(CCl)c1: melting point 68.5 °C
* CCCCOCC1CO1 (configuration not stated): melting point -65.5 °C
* CCCCCCCC/C=C\CCCCCCCC(=O)N(C)CC(=O)O.OCCN(CCO)CCO: melting point 4.5 °C
* CC(C)=CCC1(C(C)C)C(=O)NC(=O)NC1=O: melting point 131 °C
* C[C@@]12CC[C@@H]3[C@H](CCC4CCCC[C@]43C)[C@H]1CCC2=O (stereo not given in full): melting point 119 °C
* CCc1ccc(C(=O)CCl)cc1: melting point 42 °C
* CCCCCCCCCC1(CC)C(=O)NC(=O)NC1=O: melting point 113 °C
* CC(=O)NNC(=O)CCl: melting point 158 °C
* Clc1cccc(-c2cccc(Cl)c2Cl)c1Cl: melting point 121 °C
* Cc1cc(C=O)c(C)n1Cc1ccco1: melting point 88 °C
* CC[C@H]1C[C@@H]2C[C@H]3c4[nH]c5ccc(OC)cc5c4CCN(C2)[C@@H]13: melting point 148 °C
* C(#CCN1CCCC1)CN1CCCC1.Cl.Cl: melting point 237 °C
* Cc1cc(C(=O)CCl)c(C)[nH]1: melting point 144 °C
* Clc1cccc(Cl)c1C(Cl)Cl: melting point 25.5 °C
* CCCC1(CCC)C(=O)NC(=O)NC1=O: melting point 146 °C
* CN1CCN(Cc2ccc(N)cc2)CC1: melting point 97 °C
* ClCc1cc2c(cc1Br)OCO2: melting point 64 °C
* Cc1cc(C(=O)CCl)c(C)s1: melting point 55 °C
* CCC(C)OC(N)=O (configuration not stated): melting point 63 °C
* O=[N+]([O-])CC[N+](=O)[O-]: melting point 39.5 °C
* CC(Oc1ccc(Cl)cc1)C(=O)O (configuration not stated): melting point 112 °C
* NNC(=O)CN1CCCC1=O: melting point 100 °C
* C[C@@H](Oc1ccc(Oc2ccc(C#N)cc2F)cc1)C(=O)O: melting point 50 °C
* Nc1ccccc1C(=O)OCCc1ccccc1: melting point 42 °C
* COC1=C[C@]23CCN(C)[C@H](Cc4ccc(OC)c(O)c42)C3=CC1=O: melting point 197.5 °C
* C=CCC1(CC)C(=O)NC(=O)NC1=O: melting point 161 °C
* Cc1ccc(S(=O)(=O)O)cc1.Fc1ccc(C2=CCN(Cc3ccccc3)CC2)cc1: melting point 182 °C
* NNc1c([N+](=O)[O-])cc(C(F)(F)F)cc1[N+](=O)[O-]: melting point 130 °C
* CC1(C)C(=O)NC(=O)NC1=O: melting point 278 °C
* Cc1cc(C=O)c(C)n1C1CCCCC1: melting point 76 °C
* CC(=O)OC1[C@H]2CC[C@@H]3[C@]1(C[C@@H](O)[C@@]1(O)[C@@H](C[C@H](O)C1(C)C)[C@]3(C)O)C[C@@]2(C)O (stereo partly specified): melting point 259 °C
* COC1=CC=C2[C@H]3Cc4ccc(O)c5c4[C@@]2(CCN3C)[C@H]1O5: melting point 200.5 °C

A selection of 5 entries from above:

| compound | melting point (°C) |
|---|---|
| C[C@@H](Oc1ccc(Oc2ccc(C#N)cc2F)cc1)C(=O)O | 50 |
| Cc1ccc(C(O)CN)cc1 (configuration not stated) | 71 |
| Clc1cccc(Cl)c1C(Cl)Cl | 25.5 |
| CN1CCN(Cc2ccc(N)cc2)CC1 | 97 |
| ClCc1cc2c(cc1Br)OCO2 | 64 |

Values as listed in the OPERA 2.9 repository of K. Mansouri.